In one assay the target is Dopamine D2 receptor (Rattus norvegicus, UniProt P61169). In words: Dopamine D2 receptor binding assay ([3H]-raclopride). The settings on record: Dopamine D2 receptor binding test, rat corpus striatum membrane, Ki calculated from IC50 by Cheng-Prussoff formula. Here is the method: 1) Dopamine D2 Receptor Binding Assay
The assay was performed according to the method by Kohler et al. (Kohler C, Hall H, Ogren S O and Gawell L, Specific in vitro and in vivo binding of 3H-raclopride. A potent substituted benzamide drug with high affinity for dopamine D-2 receptors in the rat brain. Biochem. Pharmacol., 1985; 34: 2251-2259).
Wistar male rats were decapitated, the brain was retrieved immediately and corpus striatum was taken out. […]
The binding assay was performed using 40 μl of the membrane specimen, 20 μl of [^3H]-raclopride (final concentration 1 to 2 nM), 20 μl of a test drug and 50 mM Tris-hydrochloric acid buffer (containing 120 mM NaCl, 5 mM KCl, 2 mM CaCl2, 1 mM MgCl2, pH 7.4) so that the total amount was 200 μl (final dimethylsulfoxide concentration 1%). […] The filter plate made of glass fiber was washed with 50 mM Tris-hydrochloric acid buffer (pH 7.4), and after dried, a microplate liquid scintillation cocktail was added and the radioactivity was measured with a microplate scintillation counter. Radioactivity in the presence of 10 μM (+)-butaclamol hydrochloride was assumed as nonspecific binding.
(§1) IC50 value was calculated from concentration-dependent reaction using a non-linear analysis program. Ki value was calculated from IC50 value using Cheng-Prussoff formula.

By UniProt entry, the sequences of proteins in these tests, tags left out.
UniProt P61169, whole entry: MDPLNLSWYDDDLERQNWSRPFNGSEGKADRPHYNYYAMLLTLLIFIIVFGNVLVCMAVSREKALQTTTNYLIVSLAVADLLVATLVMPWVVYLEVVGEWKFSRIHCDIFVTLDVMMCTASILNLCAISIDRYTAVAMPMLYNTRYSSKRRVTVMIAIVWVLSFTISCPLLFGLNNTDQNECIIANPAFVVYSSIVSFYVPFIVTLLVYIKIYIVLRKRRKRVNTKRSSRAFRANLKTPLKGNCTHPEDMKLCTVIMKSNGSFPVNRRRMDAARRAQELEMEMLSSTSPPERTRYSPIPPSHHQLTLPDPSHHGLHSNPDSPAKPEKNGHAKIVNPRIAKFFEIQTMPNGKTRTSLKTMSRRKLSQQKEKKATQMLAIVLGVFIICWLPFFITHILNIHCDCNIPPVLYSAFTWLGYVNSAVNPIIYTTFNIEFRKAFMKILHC
UniProt P14842, whole entry: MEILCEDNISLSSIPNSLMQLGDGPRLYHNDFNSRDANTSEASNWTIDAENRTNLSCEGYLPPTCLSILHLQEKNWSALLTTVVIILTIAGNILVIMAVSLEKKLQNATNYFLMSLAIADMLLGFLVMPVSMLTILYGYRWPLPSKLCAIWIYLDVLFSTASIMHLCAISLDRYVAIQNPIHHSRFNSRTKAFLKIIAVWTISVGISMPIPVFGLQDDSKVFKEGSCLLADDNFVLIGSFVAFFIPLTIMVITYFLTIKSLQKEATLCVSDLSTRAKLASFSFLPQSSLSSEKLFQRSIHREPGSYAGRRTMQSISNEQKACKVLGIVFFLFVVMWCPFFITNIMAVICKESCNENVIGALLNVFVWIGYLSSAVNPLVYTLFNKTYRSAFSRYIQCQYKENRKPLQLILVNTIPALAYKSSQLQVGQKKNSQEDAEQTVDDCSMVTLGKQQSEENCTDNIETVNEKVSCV

In assay [1] the target is Serotonin 5-HT2A receptor (Rattus norvegicus, UniProt P14842). The assay can be described thus: Serotonin 5-HT2A receptor binding assay ([3H]-Ketanserin). The settings on record: Serotonin 5-HT2A receptor binding test, rat frontal cortex membrane, Ki calculated from IC50 by Cheng-Prussoff formula. Here is the method: 2) Serotonin 5-HT2A Receptor Binding Assay
The assay was performed according to the method by Leysen J E et al. (Leysen J E, Niemegeers C J E, Van Nueten J M and Laduron P M. [3H] Ketanserin (R 41 468), a selective 3H-ligand for serotonin 2 receptor binding sites. Mol. Pharmacol., 1982, 21: 301-314).
Wistar male rats were decapitated, the brain was retrieved immediately and frontal cortex was taken out. It was homogenized in 0.25 M sucrose of a volume 10 times of the weight of the tissue using a Teflon glass homogenizer, and centrifuged at 4° C., 1,000×g for 10 minutes. The obtained supernatant was transferred to another centrifuge tube and suspended in 0.25 M sucrose of a volume 5 times of the weight of the tissue and the precipitate was centrifuged in the above-described condition. […]
The filter plate made of glass fiber was washed with 50 mM Tris-hydrochloric acid buffer (pH 7.4), and after dried, a microplate liquid scintillation cocktail was added and the radioactivity was measured with a microplate scintillation counter. Radioactivity in the presence of 10 μM spiperone was assumed as nonspecific binding.
as §1

In the case of `CN1CCC(c2ccc(OCCCN3CCN(c4cccc5sccc45)CC3)cc2)CC1`, the Ki on Dopamine D2 receptor is 0.4 nM; in assay [1], 1.7 nM.

By Ki is commonly meant a measure of affinity in units of concentration, obtained from inhibition or displacement.

These data come from patent publication US8071600B2, “Derivatives of 4-piperazin-1-yl-4-benzo[B]thiophene suitable for the treatment of CNS disorders” (Otsuka Pharmaceutical Co., Ltd., priority 2005, dated 2011).
